We go through two compounds from ChEMBL document CHEMBL1140531, “New functional assay of P-glycoprotein activity using Hoechst 33342” (Bioorg Med Chem, 2007).

Amino acid sequences for entries named in this document (tags omitted).
UniProt P08183, whole entry: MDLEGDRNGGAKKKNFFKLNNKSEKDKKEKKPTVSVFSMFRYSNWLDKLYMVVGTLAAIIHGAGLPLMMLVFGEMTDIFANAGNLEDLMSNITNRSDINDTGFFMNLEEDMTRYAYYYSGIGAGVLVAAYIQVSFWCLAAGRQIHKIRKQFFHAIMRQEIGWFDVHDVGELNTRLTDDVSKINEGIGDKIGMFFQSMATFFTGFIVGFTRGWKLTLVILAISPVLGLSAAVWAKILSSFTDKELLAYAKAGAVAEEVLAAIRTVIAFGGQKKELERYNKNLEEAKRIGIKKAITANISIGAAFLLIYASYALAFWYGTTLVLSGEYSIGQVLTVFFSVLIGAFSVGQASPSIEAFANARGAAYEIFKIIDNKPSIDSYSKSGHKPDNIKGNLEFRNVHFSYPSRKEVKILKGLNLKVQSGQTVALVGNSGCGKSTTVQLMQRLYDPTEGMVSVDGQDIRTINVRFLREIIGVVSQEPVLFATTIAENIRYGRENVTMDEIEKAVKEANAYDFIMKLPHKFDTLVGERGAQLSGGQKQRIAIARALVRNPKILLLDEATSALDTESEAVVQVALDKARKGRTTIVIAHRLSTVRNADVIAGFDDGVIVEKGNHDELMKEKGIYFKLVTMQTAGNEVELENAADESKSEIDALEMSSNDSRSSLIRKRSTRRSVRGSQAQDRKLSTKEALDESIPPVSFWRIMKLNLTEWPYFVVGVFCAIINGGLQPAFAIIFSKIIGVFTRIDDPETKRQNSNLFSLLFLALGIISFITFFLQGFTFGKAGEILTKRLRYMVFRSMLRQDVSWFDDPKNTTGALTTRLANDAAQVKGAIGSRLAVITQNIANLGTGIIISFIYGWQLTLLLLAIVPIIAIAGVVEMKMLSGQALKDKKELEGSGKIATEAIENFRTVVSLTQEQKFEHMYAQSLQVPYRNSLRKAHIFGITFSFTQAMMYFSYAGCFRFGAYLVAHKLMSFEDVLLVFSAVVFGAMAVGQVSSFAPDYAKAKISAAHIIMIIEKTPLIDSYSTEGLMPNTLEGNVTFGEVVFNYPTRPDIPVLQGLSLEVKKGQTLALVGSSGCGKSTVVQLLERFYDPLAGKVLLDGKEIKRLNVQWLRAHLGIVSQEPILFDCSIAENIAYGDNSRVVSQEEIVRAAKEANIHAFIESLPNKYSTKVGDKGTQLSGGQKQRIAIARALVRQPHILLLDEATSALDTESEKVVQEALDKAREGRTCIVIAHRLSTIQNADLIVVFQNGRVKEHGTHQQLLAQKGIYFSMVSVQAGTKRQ

For assay [1], the target named is T1, ATP-dependent translocase ABCB1 (Homo sapiens, UniProt P08183). Description: Inhibition of P-glycoprotein expressed in A2780/ADR cells by calcein AM assay. Format: cell-based.
Assay [2] deals with T1, ATP-dependent translocase ABCB1. Description: Inhibition of P-glycoprotein by Hoechst assay.

The term IC50 denotes the point on the concentration scale where inhibition reaches its midpoint. For `COC(=O)C1=C(C)NC(C)=C(C(=O)OCCN(C)Cc2ccccc2)C1c1cccc([N+](=O)[O-])c1` (centres undefined) [NICARDIPINE], the IC50 in assay [1] was 4.79 µM; in assay [2], 5.13 µM.
For `CC(=O)[C@H]1CC[C@H]2[C@@H]3CCC4=CC(=O)CC[C@]4(C)[C@H]3CC[C@]12C` [PROGESTERONE], in that order: 47.9 µM and 49 µM.
